As a reminder, the IC50 is the point on the concentration scale where inhibition reaches its midpoint. Higher therefore signals lower potency.

Sequences of proteins named here, by UniProt entry; tags and fusion partners are left off.
UniProt P27487, whole entry: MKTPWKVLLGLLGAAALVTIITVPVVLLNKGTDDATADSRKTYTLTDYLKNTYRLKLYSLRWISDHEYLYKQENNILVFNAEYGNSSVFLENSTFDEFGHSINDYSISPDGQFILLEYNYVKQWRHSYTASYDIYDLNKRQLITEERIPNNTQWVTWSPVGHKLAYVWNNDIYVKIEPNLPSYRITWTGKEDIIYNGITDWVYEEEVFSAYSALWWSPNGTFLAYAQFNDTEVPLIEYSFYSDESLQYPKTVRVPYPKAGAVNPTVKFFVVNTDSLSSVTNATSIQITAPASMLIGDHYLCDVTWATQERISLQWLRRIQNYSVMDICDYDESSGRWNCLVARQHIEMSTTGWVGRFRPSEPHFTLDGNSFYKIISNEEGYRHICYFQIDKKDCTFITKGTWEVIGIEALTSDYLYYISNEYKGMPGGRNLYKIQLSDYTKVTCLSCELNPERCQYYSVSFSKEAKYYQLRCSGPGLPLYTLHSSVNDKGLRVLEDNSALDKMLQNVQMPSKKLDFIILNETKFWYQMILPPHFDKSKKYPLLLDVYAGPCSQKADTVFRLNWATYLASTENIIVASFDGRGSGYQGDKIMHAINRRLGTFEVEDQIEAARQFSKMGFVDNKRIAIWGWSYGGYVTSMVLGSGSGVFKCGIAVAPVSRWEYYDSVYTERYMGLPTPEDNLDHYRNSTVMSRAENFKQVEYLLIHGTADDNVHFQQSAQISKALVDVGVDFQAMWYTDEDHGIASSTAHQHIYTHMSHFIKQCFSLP

The test deals with Dipeptidyl peptidase 4 (Homo sapiens, UniProt P27487).

As for `Cc1cc2ncc(C(=O)NCC(C)(C)NCC(=O)N3CCC[C@H]3C#N)cn2n1` [ANAGLIPTIN], the IC50 was found to be 3.3 nM.

The values are drawn from ChEMBL document CHEMBL5150054, “Pyrazole-containing pharmaceuticals: target, pharmacological activity, and their SAR studies” (RSC Med Chem, 2022).
